What is called IC50 is the point on the concentration scale where inhibition reaches its midpoint. A higher IC50 goes with lower potency.

Sequences of proteins named here, by UniProt entry; tags and fusion partners are left off.
UniProt Q8I1Y2, entry or part of it: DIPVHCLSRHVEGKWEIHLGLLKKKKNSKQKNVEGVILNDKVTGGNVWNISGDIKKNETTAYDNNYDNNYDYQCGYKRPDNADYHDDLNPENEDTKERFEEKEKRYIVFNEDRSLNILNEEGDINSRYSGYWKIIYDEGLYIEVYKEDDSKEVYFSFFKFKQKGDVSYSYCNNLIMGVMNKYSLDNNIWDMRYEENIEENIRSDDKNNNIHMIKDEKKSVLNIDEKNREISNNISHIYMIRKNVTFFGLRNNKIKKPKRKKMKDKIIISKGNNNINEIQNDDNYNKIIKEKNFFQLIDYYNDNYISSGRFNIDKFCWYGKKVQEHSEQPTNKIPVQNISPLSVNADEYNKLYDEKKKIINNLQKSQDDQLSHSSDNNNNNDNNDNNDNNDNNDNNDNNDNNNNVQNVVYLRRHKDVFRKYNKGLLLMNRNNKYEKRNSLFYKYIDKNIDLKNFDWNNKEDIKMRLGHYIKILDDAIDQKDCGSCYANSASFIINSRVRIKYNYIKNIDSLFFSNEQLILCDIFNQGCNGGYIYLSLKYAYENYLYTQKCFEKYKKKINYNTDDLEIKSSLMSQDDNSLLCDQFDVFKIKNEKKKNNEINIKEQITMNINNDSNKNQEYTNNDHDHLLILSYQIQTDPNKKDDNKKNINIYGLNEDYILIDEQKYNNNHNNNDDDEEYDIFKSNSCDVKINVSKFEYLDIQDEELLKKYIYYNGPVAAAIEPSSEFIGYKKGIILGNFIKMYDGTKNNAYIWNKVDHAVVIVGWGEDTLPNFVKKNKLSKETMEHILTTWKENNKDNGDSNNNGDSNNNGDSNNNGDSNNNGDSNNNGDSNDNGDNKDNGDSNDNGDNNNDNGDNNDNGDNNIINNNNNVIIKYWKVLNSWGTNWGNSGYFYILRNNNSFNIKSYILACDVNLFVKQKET

Each structure is given as a SMILES string.

The first test deals with T1, DPAP3 (Plasmodium falciparum, UniProt Q8I1Y2).
Assay: not given
Conditions: not given
In the case of `Cn1cc(Br)c(C(=O)Nc2sc3c(c2C(N)=O)CCCCC3)n1` [SMDC111619, Cn1cc(Br)c(n1)C(=O)Nc2sc3CCCCCc3c2C(=O)N], the “IC50 DPAP3” value is reported as “N.I”. For the compound `CCc1nccn1C(=O)c1cnn2c(C(F)F)cc(-c3ccccc3)nc12` [SMDC158691, CCc1nccn1C(=O)c2cnn3c(cc(nc23)c4ccccc4)C(F)F], the “IC50 DPAP3” value is “N.I”.

Take `Cn1c(S)nc2c(=O)oc3ccccc3c21` [SMDC168313, Cn1c(S)nc2C(=O)Oc3ccccc3c12]: the “IC50 DPAP3” value was “N.I”.

Another test addresses T1, DPAP3. As to the kind of experiment: biochemical.
Conditions: not given
For `Cc1nc(SCC(=O)O)c(C#N)c(C)c1C` [SMDC39848, Cc1nc(SCC(=O)O)c(C#N)c(C)c1C], the IC50 was approximately 100 µM. The compound `COc1cc(/C=C2/NC(=O)N(Cc3ccccc3F)C2=O)cc(Br)c1O` [SMDC103222, COc1cc(\C=C/2\NC(=O)N(Cc3ccccc3F)C2=O)cc(Br)c1O] came in with an IC50 of approximately 50 µM.

In turn, `CC(Oc1cccc(Cl)c1)C(=O)Nc1sc2c(c1C(N)=O)CCCCC2` (stereo not shown) [SMDC106517, CC(Oc1cccc(Cl)c1)C(=O)Nc2sc3CCCCCc3c2C(=O)N] gave an IC50 of 21 µM. Same read-out and setting: the figure for `NC(=O)c1c(NC(=O)COc2ccc(Cl)cc2)sc2c1CCCCC2` [SMDC106958, NC(=O)c1c2CCCCCc2sc1NC(=O)COc3ccc(Cl)cc3] is approximately 100 µM. On the same count and under the same terms, for `Cc1ccc(NC(=O)CN2C(=O)S/C(=C\c3ccccc3O)C2=O)cc1` [SMDC112370, Cc1ccc(NC(=O)CN2C(=O)S\C(=C/c3ccccc3O)\C2=O)cc1] the value was 31 µM; for `CSc1nc(S)c2c3c(sc2n1)CCC3` [SMDC153437A, CSC1=NC(S)=C2C3=C(CCC3)SC2=N1], 25 µM.

`CCN(C(=O)c1ccco1)c1nc(-c2ccccc2)cs1` [SMDC168314, CCN(C(=O)c1occc1)c2nc(cs2)c3ccccc3] displayed an IC50 of approximately 100 µM. The compound `N#CC1=C2SCN(Cc3ccco3)CN2C(=O)CC1c1cccc(OCc2ccccc2)c1` (stereo not shown) [SMDC170136, O=C1CC(C(=C2SCN(Cc3occc3)CN12)C#N)c4cccc(OCc5ccccc5)c4] showed an IC50 of 0.9 µM. In turn, `N#CC1=C2SCN(C3CCCCC3)CN2C(=O)CC1c1cccc2ccccc12` (stereo not shown) [SMDC170156, O=C1CC(C(=C2SCN(CN12)C3CCCCC3)C#N)c4cccc5ccccc45] showed an IC50 of 0.9 µM. The same measure, in the same setting: for `COc1cccc(C2CC(=O)N3CN(CCc4sccc4C)CSC3=C2C#N)c1` (stereo not shown) [SMDC178790, COc1cccc(c1)C2CC(=O)N3CN(CCc4sccc4C)CSC3=C2C#N] the value was 0.4 µM. Still for that read-out and setting: for `Cc1ccsc1CCN1CSC2=C(C#N)C(c3ccc(Cl)cc3)CC(=O)N2C1` (stereo not shown) [SMDC178801, Cc1ccsc1CCN2CSC3=C(C#N)C(CC(=O)N3C2)c4ccc(Cl)cc4] the value was 0.23 µM; for `CCOc1ccc(C2CC(=O)N3CN(C(C)c4ccccc4)CSC3=C2C#N)cc1` (stereo not shown) [SMDC178822, CCOc1ccc(cc1)C2CC(=O)N3CN(CSC3=C2C#N)C(C)c4ccccc4], 0.16 µM.

The target in the next test is CatC.
Assay: not given
The conditions noted are these: covalent inhibitor; cited from earlier work. More on the design: method as in PMID 31177613.
Regarding `CCC[C@H](N)C(=O)N[C@H](/C=C/S(=O)(=O)c1ccccc1)CCc1ccccc1` [JCP410], the “ki/Ki for CatC” value is 5.8e+06 M⁻¹ s⁻¹.

The values are drawn from article PMC6919601, “Identification of Plasmodium dipeptidyl aminopeptidase allosteric inhibitors by high throughput screening” (PLoS ONE, 2019).
